# Literature values, collected in patent US7355042B2, “Treatment of CNS disorders using CNS target modulators” (Hypnion, Inc., priority 2001, dated 2008).
# Chains of the proteins cited; added tags and fusions are not shown.
# UniProt P10980, whole entry: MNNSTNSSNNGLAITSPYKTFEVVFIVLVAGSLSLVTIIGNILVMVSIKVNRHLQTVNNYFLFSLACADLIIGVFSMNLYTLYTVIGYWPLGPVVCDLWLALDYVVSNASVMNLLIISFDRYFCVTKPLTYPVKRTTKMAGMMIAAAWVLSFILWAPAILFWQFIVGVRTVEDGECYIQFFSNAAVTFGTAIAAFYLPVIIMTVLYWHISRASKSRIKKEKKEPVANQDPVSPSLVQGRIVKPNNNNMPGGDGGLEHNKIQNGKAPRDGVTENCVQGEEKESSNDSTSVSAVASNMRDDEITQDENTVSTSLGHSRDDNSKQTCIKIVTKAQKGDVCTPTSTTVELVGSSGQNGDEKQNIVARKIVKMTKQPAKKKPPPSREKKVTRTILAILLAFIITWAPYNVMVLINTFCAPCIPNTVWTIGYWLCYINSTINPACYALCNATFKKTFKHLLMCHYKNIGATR
# Target: T1, M2 receptor from rat cardiac membranes (Rattus norvegicus, UniProt P10980)
# T1 construct: the M2 receptor was from rat cardiac membranes; from tissue; host or cells: rat cardiac membranes
# Details: read-out: Ki of reference compounds, M2 binding assay; cited from earlier work
smiles,measurement,value
C[N+]1(C)CCC(OC(=O)C(c2ccccc2)c2ccccc2)CC1 [4-DAMP methiodide],Ki,3 nM
